Biological target: T1, Kv2.1 channel (Rattus norvegicus, UniProt P15387)
T1 construct: expressed in transfected cells; host or cells: Xenopus laevis oocytes, cRNA injection
T1 sequence (P15387 1-857): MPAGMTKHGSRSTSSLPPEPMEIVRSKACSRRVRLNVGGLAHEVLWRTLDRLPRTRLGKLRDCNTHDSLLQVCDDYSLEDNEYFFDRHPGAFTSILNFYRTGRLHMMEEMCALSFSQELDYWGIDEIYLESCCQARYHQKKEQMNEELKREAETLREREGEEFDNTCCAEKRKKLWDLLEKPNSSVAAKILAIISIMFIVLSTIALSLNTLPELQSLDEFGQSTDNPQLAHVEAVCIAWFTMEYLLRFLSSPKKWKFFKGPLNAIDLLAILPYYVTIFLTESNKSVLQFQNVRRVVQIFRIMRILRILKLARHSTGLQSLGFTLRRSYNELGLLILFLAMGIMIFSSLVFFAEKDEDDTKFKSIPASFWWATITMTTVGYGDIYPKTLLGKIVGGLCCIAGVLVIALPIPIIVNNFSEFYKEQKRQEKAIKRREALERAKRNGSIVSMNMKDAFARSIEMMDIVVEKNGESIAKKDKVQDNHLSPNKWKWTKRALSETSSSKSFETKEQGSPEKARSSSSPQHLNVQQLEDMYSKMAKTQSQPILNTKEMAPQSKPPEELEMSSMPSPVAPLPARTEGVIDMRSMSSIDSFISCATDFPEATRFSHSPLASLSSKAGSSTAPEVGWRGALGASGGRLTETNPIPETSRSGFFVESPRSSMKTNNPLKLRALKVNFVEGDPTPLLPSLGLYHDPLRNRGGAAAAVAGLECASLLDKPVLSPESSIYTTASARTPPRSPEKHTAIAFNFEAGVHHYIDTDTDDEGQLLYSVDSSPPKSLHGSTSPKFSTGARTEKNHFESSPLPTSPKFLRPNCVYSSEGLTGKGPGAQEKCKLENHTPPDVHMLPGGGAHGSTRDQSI
Assay: Inhibition of Kv2.1 channel currents in Xenopus oocytes (two-electrode voltage clamp), apparent affinity
Type: cell-based
Details: Kv2.1 in oocytes; for ∆∆G (perturbation energy): from apparent Kd of mutant vs GxTx-1E(Nle); for Kd^mut/Kd^wt: ratio of apparent Kd of mutant to GxTx-1E(Nle)

Row | Structure (SMILES) | ∆∆G (perturbation energy) | Kd^mut/Kd^wt
1 | CCCC[C@H](NC(=O)[C@@H]1CCCN1C(=O)[C@H](Cc1ccccc1)NC(=O)[C@H](CC(N)=O)NC(=O)[C@@H]1CSSC[C@@H]2NC(=O)[C@H](C)NC(=O)[C@@H]3CCCN3C(=O)[C@H](CCCCN)NC(=O)CNC(=O)[C@H](CO)NC(=O)CNC(=O)[C@@H]3CSSC[C@H](NC(=O)[C@H](C(C)C)NC(=O)[C@H](Cc4ccc(O)cc4)NC(=O)[C@H](CCCCN)NC(=O)[C@@H]4CCCN4C(=O)[C@H](CSSC[C@H](NC(=O)[C@H](C)NC(=O)CNC(=O)[C@@H](N)CCC(=O)O)C(=O)NCC(=O)NCC(=O)N[C@@H](Cc4ccccc4)C(=O)N[C@@H](Cc4c[nH]c5ccccc45)C(=O)N[C@@H](Cc4c[nH]c5ccccc45)C(=O)N[C@@H](CCCCN)C(=O)N3)NC2=O)C(=O)N[C@@H](CO)C(=O)N2CCC[C@H]2C(=O)N[C@@H](CCCCN)C(=O)N[C@@H](Cc2c[nH]c3ccccc23)C(=O)NCC(=O)N[C@@H](CC(C)C)C(=O)N1)C(=O)N1CCC[C@H]1C(=O)O [Toxin E3A] | -0.35 kcal/mol | 
2 | CCCC[C@H](NC(=O)[C@@H]1CCCN1C(=O)[C@H](Cc1ccccc1)NC(=O)[C@H](CC(N)=O)NC(=O)[C@@H]1CSSC[C@@H]2NC(=O)[C@H](C)NC(=O)[C@@H]3CCCN3C(=O)[C@H](CCCCN)NC(=O)CNC(=O)[C@H](CO)NC(=O)CNC(=O)[C@@H]3CSSC[C@H](NC(=O)[C@H](C(C)C)NC(=O)[C@H](Cc4ccc(O)cc4)NC(=O)[C@H](CCCCN)NC(=O)[C@@H]4CCCN4C(=O)[C@H](CSSC[C@H](NC(=O)[C@H](CCC(=O)O)NC(=O)CNC(=O)[C@@H](N)CCC(=O)O)C(=O)NCC(=O)NCC(=O)N[C@@H](C)C(=O)N[C@@H](Cc4c[nH]c5ccccc45)C(=O)N[C@@H](Cc4c[nH]c5ccccc45)C(=O)N[C@@H](CCCCN)C(=O)N3)NC2=O)C(=O)N[C@@H](CO)C(=O)N2CCC[C@H]2C(=O)N[C@@H](CCCCN)C(=O)N[C@@H](Cc2c[nH]c3ccccc23)C(=O)NCC(=O)N[C@@H](CC(C)C)C(=O)N1)C(=O)N1CCC[C@H]1C(=O)O [Toxin F7A] | 3.55 kcal/mol | 
3 | CCCC[C@H](NC(=O)[C@@H]1CCCN1C(=O)[C@H](C)NC(=O)[C@H](CC(N)=O)NC(=O)[C@@H]1CSSC[C@@H]2NC(=O)[C@H](C)NC(=O)[C@@H]3CCCN3C(=O)[C@H](CCCCN)NC(=O)CNC(=O)[C@H](CO)NC(=O)CNC(=O)[C@@H]3CSSC[C@H](NC(=O)[C@H](C(C)C)NC(=O)[C@H](Cc4ccc(O)cc4)NC(=O)[C@H](CCCCN)NC(=O)[C@@H]4CCCN4C(=O)[C@H](CSSC[C@H](NC(=O)[C@H](CCC(=O)O)NC(=O)CNC(=O)[C@@H](N)CCC(=O)O)C(=O)NCC(=O)NCC(=O)N[C@@H](Cc4ccccc4)C(=O)N[C@@H](Cc4c[nH]c5ccccc45)C(=O)N[C@@H](Cc4c[nH]c5ccccc45)C(=O)N[C@@H](CCCCN)C(=O)N3)NC2=O)C(=O)N[C@@H](CO)C(=O)N2CCC[C@H]2C(=O)N[C@@H](CCCCN)C(=O)N[C@@H](Cc2c[nH]c3ccccc23)C(=O)NCC(=O)N[C@@H](CC(C)C)C(=O)N1)C(=O)N1CCC[C@H]1C(=O)O [Toxin F33A] | 0.47 kcal/mol | 2.2
4 | CCCC[C@H](NC(=O)[C@@H]1CCCN1C(=O)[C@H](Cc1ccccc1)NC(=O)[C@H](CC(N)=O)NC(=O)[C@@H]1CSSC[C@@H]2NC(=O)[C@H](C)NC(=O)[C@@H]3CCCN3C(=O)[C@H](CCCCN)NC(=O)CNC(=O)[C@H](CO)NC(=O)CNC(=O)[C@@H]3CSSC[C@H](NC(=O)[C@H](C(C)C)NC(=O)[C@H](Cc4ccc(O)cc4)NC(=O)[C@H](CCCCN)NC(=O)[C@@H]4CCCN4C(=O)[C@H](CSSC[C@H](NC(=O)[C@H](CCC(=O)O)NC(=O)[C@H](C)NC(=O)[C@@H](N)CCC(=O)O)C(=O)NCC(=O)NCC(=O)N[C@@H](Cc4ccccc4)C(=O)N[C@@H](Cc4c[nH]c5ccccc45)C(=O)N[C@@H](Cc4c[nH]c5ccccc45)C(=O)N[C@@H](CCCCN)C(=O)N3)NC2=O)C(=O)N[C@@H](CO)C(=O)N2CCC[C@H]2C(=O)N[C@@H](CCCCN)C(=O)N[C@@H](Cc2c[nH]c3ccccc23)C(=O)NCC(=O)N[C@@H](CC(C)C)C(=O)N1)C(=O)N1CCC[C@H]1C(=O)O [Toxin G2A] | 0.17 kcal/mol | 
5 | CCCC[C@H](NC(=O)[C@@H]1CCCN1C(=O)[C@H](Cc1ccccc1)NC(=O)[C@H](CC(N)=O)NC(=O)[C@@H]1CSSC[C@@H]2NC(=O)[C@H](C)NC(=O)[C@@H]3CCCN3C(=O)[C@H](CCCCN)NC(=O)CNC(=O)[C@H](CO)NC(=O)CNC(=O)[C@@H]3CSSC[C@H](NC(=O)[C@H](C(C)C)NC(=O)[C@H](Cc4ccc(O)cc4)NC(=O)[C@H](CCCCN)NC(=O)[C@@H]4CCCN4C(=O)[C@H](CSSC[C@H](NC(=O)[C@H](CCC(=O)O)NC(=O)CNC(=O)[C@@H](N)CCC(=O)O)C(=O)N[C@@H](C)C(=O)NCC(=O)N[C@@H](Cc4ccccc4)C(=O)N[C@@H](Cc4c[nH]c5ccccc45)C(=O)N[C@@H](Cc4c[nH]c5ccccc45)C(=O)N[C@@H](CCCCN)C(=O)N3)NC2=O)C(=O)N[C@@H](CO)C(=O)N2CCC[C@H]2C(=O)N[C@@H](CCCCN)C(=O)N[C@@H](Cc2c[nH]c3ccccc23)C(=O)NCC(=O)N[C@@H](CC(C)C)C(=O)N1)C(=O)N1CCC[C@H]1C(=O)O [Toxin G5A] | 2.44 kcal/mol | 
6 | CCCC[C@H](NC(=O)[C@@H]1CCCN1C(=O)[C@H](Cc1ccccc1)NC(=O)[C@H](CC(N)=O)NC(=O)[C@@H]1CSSC[C@@H]2NC(=O)[C@H](C)NC(=O)[C@@H]3CCCN3C(=O)[C@H](CCCCN)NC(=O)CNC(=O)[C@H](CO)NC(=O)CNC(=O)[C@@H]3CSSC[C@H](NC(=O)[C@H](C(C)C)NC(=O)[C@H](Cc4ccc(O)cc4)NC(=O)[C@H](CCCCN)NC(=O)[C@@H]4CCCN4C(=O)[C@H](CSSC[C@H](NC(=O)[C@H](CCC(=O)O)NC(=O)CNC(=O)[C@@H](N)CCC(=O)O)C(=O)NCC(=O)N[C@@H](C)C(=O)N[C@@H](Cc4ccccc4)C(=O)N[C@@H](Cc4c[nH]c5ccccc45)C(=O)N[C@@H](Cc4c[nH]c5ccccc45)C(=O)N[C@@H](CCCCN)C(=O)N3)NC2=O)C(=O)N[C@@H](CO)C(=O)N2CCC[C@H]2C(=O)N[C@@H](CCCCN)C(=O)N[C@@H](Cc2c[nH]c3ccccc23)C(=O)NCC(=O)N[C@@H](CC(C)C)C(=O)N1)C(=O)N1CCC[C@H]1C(=O)O [Toxin G6A] | 0.31 kcal/mol | 
7 | CCCC[C@H](NC(=O)[C@@H]1CCCN1C(=O)[C@H](Cc1ccccc1)NC(=O)[C@H](CC(N)=O)NC(=O)[C@@H]1CSSC[C@@H]2NC(=O)[C@H](C)NC(=O)[C@@H]3CCCN3C(=O)[C@H](CCCCN)NC(=O)CNC(=O)[C@H](CO)NC(=O)[C@H](C)NC(=O)[C@@H]3CSSC[C@H](NC(=O)[C@H](C(C)C)NC(=O)[C@H](Cc4ccc(O)cc4)NC(=O)[C@H](CCCCN)NC(=O)[C@@H]4CCCN4C(=O)[C@H](CSSC[C@H](NC(=O)[C@H](CCC(=O)O)NC(=O)CNC(=O)[C@@H](N)CCC(=O)O)C(=O)NCC(=O)NCC(=O)N[C@@H](Cc4ccccc4)C(=O)N[C@@H](Cc4c[nH]c5ccccc45)C(=O)N[C@@H](Cc4c[nH]c5ccccc45)C(=O)N[C@@H](CCCCN)C(=O)N3)NC2=O)C(=O)N[C@@H](CO)C(=O)N2CCC[C@H]2C(=O)N[C@@H](CCCCN)C(=O)N[C@@H](Cc2c[nH]c3ccccc23)C(=O)NCC(=O)N[C@@H](CC(C)C)C(=O)N1)C(=O)N1CCC[C@H]1C(=O)O [Toxin G12A] | 2.71 kcal/mol | 97.1
8 | CCCC[C@H](NC(=O)[C@@H]1CCCN1C(=O)[C@H](Cc1ccccc1)NC(=O)[C@H](CC(N)=O)NC(=O)[C@@H]1CSSC[C@@H]2NC(=O)[C@H](C)NC(=O)[C@@H]3CCCN3C(=O)[C@H](CCCCN)NC(=O)[C@H](C)NC(=O)[C@H](CO)NC(=O)CNC(=O)[C@@H]3CSSC[C@H](NC(=O)[C@H](C(C)C)NC(=O)[C@H](Cc4ccc(O)cc4)NC(=O)[C@H](CCCCN)NC(=O)[C@@H]4CCCN4C(=O)[C@H](CSSC[C@H](NC(=O)[C@H](CCC(=O)O)NC(=O)CNC(=O)[C@@H](N)CCC(=O)O)C(=O)NCC(=O)NCC(=O)N[C@@H](Cc4ccccc4)C(=O)N[C@@H](Cc4c[nH]c5ccccc45)C(=O)N[C@@H](Cc4c[nH]c5ccccc45)C(=O)N[C@@H](CCCCN)C(=O)N3)NC2=O)C(=O)N[C@@H](CO)C(=O)N2CCC[C@H]2C(=O)N[C@@H](CCCCN)C(=O)N[C@@H](Cc2c[nH]c3ccccc23)C(=O)NCC(=O)N[C@@H](CC(C)C)C(=O)N1)C(=O)N1CCC[C@H]1C(=O)O [Toxin G14A] | 0.43 kcal/mol | 2.1
